Experimental data from PubChem BioAssay (NCATS).
Only a part is listed here, and it is no random draw. Results filed as inconclusive are left out. The source made the active and inactive calls. Unless noted, the call rests on the fitted dose curve; in most records, active means well fitted curve in the direction sought with a large enough effect; inconclusive means small, poorly fitted or top-dose-only effect, or another doubt; inactive means no such curve, though single readings can be large; an effect the other way counts as inactive or inconclusive.

Amino acid sequences for entries named in this document (tags omitted).
UniProt Q07343, whole entry: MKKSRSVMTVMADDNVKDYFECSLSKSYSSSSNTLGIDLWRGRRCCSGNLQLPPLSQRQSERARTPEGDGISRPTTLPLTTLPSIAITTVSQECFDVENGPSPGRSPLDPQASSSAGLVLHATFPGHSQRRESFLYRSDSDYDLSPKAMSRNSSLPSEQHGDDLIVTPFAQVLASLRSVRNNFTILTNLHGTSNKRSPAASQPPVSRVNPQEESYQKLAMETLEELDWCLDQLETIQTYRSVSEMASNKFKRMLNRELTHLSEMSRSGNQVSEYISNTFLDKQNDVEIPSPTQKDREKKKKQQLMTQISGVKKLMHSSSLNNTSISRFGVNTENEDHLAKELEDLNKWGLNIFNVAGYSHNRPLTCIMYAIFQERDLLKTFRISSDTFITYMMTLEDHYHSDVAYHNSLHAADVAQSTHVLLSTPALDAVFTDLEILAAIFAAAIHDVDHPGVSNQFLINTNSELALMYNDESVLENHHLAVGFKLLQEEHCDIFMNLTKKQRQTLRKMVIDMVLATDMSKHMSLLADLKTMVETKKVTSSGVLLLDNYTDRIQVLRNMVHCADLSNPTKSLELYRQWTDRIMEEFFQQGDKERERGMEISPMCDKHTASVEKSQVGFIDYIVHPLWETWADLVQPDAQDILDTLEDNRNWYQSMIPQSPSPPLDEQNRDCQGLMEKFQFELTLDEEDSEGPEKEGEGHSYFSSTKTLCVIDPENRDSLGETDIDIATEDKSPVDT

Legend:
[1] = biological target: Mitogen-activated protein kinase 10 (Mus musculus) (UniProt Q61831); assay: JNK3 AlphaScreen Assay (AID 530; active means well fitted curve in either direction with a large enough effect, not every such curve was filed as active;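 further: kinase came from lysate of stimulated human HepG2 cells; signal reports phosphorylation of biotinylated GST-cJun 1-79 at Ser73 with 10 µM ATP; on the % scale 0 is the no-effect control and ±100 the full control effect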); conditions: JNK3 lysate, c-Jun phosphorylation; at 57.1 µM (top of the series) unless noted
Procedure, shortened: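 Biotinylated GST-cJun(1-79) served as substrate for JNK3 in HepG2 lysates stimulated with IL-1beta and TNF-alpha. ATP was 10 uM final, pH 7.6. Ser73 phosphorylation was quantified by AlphaScreen (680 nm excitation).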

[2] = Cell Viability - N2a (AID 540); conditions: N2a mouse neuroblastoma cell viability; at 92.2 µM (top of the series);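 further: cells exposed to compound for 40 h at 37 °C; plate controls were DMSO alone for no effect and tamoxifen control for full effect; nearly all actives have a fitted effect of over 45% in size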
Procedure, shortened: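 In this qHTS cytotoxicity screen, ATP-dependent luciferase luminescence reports viable N2a cells after a 40 hr compound exposure in complete culture medium. Potencies are AC50 values from standard Hill equation fits.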

[3] = Cell Viability - NIH 3T3 (AID 541); conditions: NIH 3T3 cell viability, qHTS; at 92.2 µM (top of the series);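 further: cells exposed to compound for 40 hours; plate controls were DMSO alone for no effect and tamoxifen positive control for full effect; nearly all actives have a fitted effect of over 25% in size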
Procedure, shortened: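 In this cytotoxicity screen, acute toxicity is scored as an ATP drop measured by CellTiter-Glo in NIH 3T3 fibroblasts following a 40 hr, 37 °C incubation with compound.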

[4] = Cell Viability - HUV-EC-C (AID 542); conditions: HUV-EC-C endothelial cell viability, qHTS; at 92.2 µM (top of the series);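 further: cells exposed to compound for 40 hours; on the % scale 0 is the no-effect control and ±100 the full control effect; nearly all actives have a fitted effect of over 35% in size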
Procedure, shortened: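 Concentration-dependent ATP loss in HUV-EC-C cells is the measure. Exposure lasts 40 hr at 37 °C; luminescence follows CellTiter-Glo addition, and Hill fits give AC50.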

[5] = Cell Viability - H-4-II-E (AID 543); conditions: H-4-II-E rat hepatoma viability; at 92.2 µM (top of the series);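 further: cells exposed to compound for 40 hours; on the % scale 0 is the no-effect control and ±100 the full control effect; nearly all actives have a fitted effect of over 35% in size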
Procedure, shortened: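 AC50 from Hill-modelled qHTS concentration-response curves. H-4-II-E rat hepatoma cells in complete medium, 40 hr exposure at 37 °C, viability by CellTiter-Glo ATP luminescence.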

[6] = Cell Viability - SH-SY5Y (AID 544); conditions: SH-SY5Y neuroblastoma cell viability; at 92.2 µM (top of the series);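 further: cells exposed to compound for 40 hours; nearly all actives have a fitted effect of over 55% in size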
Procedure, shortened: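 Quantitative HTS in SH-SY5Y neuroblastoma cells, 40 hr treatment at 37 °C, ATP content by luciferase luminescence; AC50 from Hill fits.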

[7] = Cell Viability - Renal Proximal Tubule (AID 545); conditions: renal proximal tubule cells viability, primary cells of rat origin; at 91.7 µM (top of the series);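 further: cells exposed to compound for 40 hours; nearly all actives have a fitted effect of over 40% in size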
Procedure, shortened: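 Cytotoxicity is scored as a concentration-dependent drop in cellular ATP in primary rat renal proximal tubule cells exposed for 40 hr. AC50 derives from Hill modelling.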

[8] = Cell Viability - Mesenchymal (AID 546); conditions: mesenchymal cells viability, qHTS; at 91.7 µM (top of the series);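 further: cells exposed to compound for 40 hours before reading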
Procedure, shortened: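 In this qHTS cytotoxicity format, glomerulus-derived human mesenchymal kidney cells received compound for 40 hr, then luciferase-based ATP quantitation. Concentration-response data were fitted with the Hill equation.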

[9] = Cellular Toxicity (caspase-3) HepG2 (AID 654); conditions: HepG2 caspase-3 activation, luminescence, 0% = DMSO only, 100% = tamoxifen; at 92.2 µM (top of the series);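 further: cells exposed to compound for 16 hours before reading; 0% = DMSO alone and 100% = caspase signal from 100 µM tamoxifen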
Procedure, shortened: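 Concentration-response AC50 values reflect caspase-3/7 induction in HepG2 cells after 16 hours of compound exposure, quantified by luminescence from liberated aminoluciferin and referenced to 100 uM tamoxifen as full stimulation.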

[10] = Cellular Toxicity (caspase-3) Jurkat (AID 655); conditions: Jurkat caspase-3 activation, luminescence, DMSO = 0%, tamoxifen = 100%; at 92.2 µM (top of the series);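 further: cells exposed to compound for 16 h at 37 °C before reading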
Procedure, shortened: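 Caspase 3/7 activation is scored as increased luminescence in Jurkat cells cultured with compound for 16 hours in complete medium. AC50 values come from Hill fits of qHTS concentration-response data normalized to DMSO and 100 uM tamoxifen controls.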

[11] = Cellular Toxicity (caspase-3) HUV-EC-C (AID 656); conditions: HUV-EC-C cells, caspase-3 activation (apoptosis), vehicle = 0, 100 µM tamoxifen = 100%; at 92.2 µM (top of the series)
Procedure, shortened: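 Read-out: luminescence proportional to caspase 3/7 activity, measured 20 min after adding Caspase-Glo 3/7 reagent. Cells (HUV-EC-C) had received compound for 16 hr at 37°C. Increases relative to DMSO and 100 uM tamoxifen gave concentration-response AC50 values.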

[12] = Cellular Toxicity (caspase-3) SHSY5Y (AID 657); conditions: SH-SY5Y caspase-3 activation, DMSO zero, 10 µM staurosporine = 100%; at 91.7 µM (top of the series)
Procedure, shortened: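 Cells plated and incubated 5 h at 37 °C, dosed over a concentration range, incubated 16 h, then given Caspase-Glo 3/7 reagent for 1 h at room temperature before luminescence reading. Staurosporine (10 uM) defined full stimulation.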

[13] = Cellular Toxicity (caspase-3) BJ (AID 658); conditions: BJ fibroblasts, luminescence, normalized: DMSO 0%, staurosporine 100%; at 91.7 µM (top of the series)
Procedure, shortened: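 Plated BJ cells (1000/well) rested 5 hr, received compound for 16 hr at 37 °C, then Caspase-Glo 3/7 reagent for 1 hr at room temperature before luminescence reading.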

[14] = Cellular Toxicity (caspase-3) MRC-5 (AID 659); conditions: MRC-5 cells, luminescence, normalized: DMSO 0%, 10 µM staurosporine 100%; at 91.7 µM (top of the series)
Procedure, shortened: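 Apoptosis readout in MRC-5 cells: luciferase light generated after caspase 3/7 cleaves a peptide-aminoluciferin substrate, measured post 16 hr compound incubation at 37 °C.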

[15] = Cellular Toxicity (caspase-3) Mesangial (AID 660); conditions: mesangial cells, normalized: DMSO 0%, 100 µM tamoxifen 100%; at 91.7 µM (top of the series);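 further: cells exposed to compound for 16 h before the caspase read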
Procedure, shortened: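 AC50 values come from Hill-equation fits of caspase 3/7 activation, measured as Caspase-Glo luminescence in human glomerular mesangial cells exposed to compound for 16 h at 37 °C; 100% set by 100 uM tamoxifen.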

[16] = Cellular Toxicity (caspase-3) SK-N-SH (AID 661); conditions: SK-N-SH caspase-3 activation, qHTS, DMSO as zero, staurosporine as full; at 91.7 µM (top of the series)
Procedure, shortened: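 Apoptosis readout in SK-N-SH neuroblastoma: Caspase-Glo 3/7 luminescence following 16 hr treatment in complete culture medium. Normalization used DMSO and 10 uM staurosporine controls.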

[17] = AP1 Signaling Pathway (AID 357; active means well fitted curve in either direction with a large enough effect, not every such curve was filed as active;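 further: ME-180 reporter cells stimulated with EGF at its EC50 level; on the % scale 0 is the no-effect control and ±100 the full control effect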); conditions: ME-180 AP-1-bla reporter, EGF-induced, beta-lactamase ratio, 5 h; at 7.69 µM (top of the series)
Procedure, shortened: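 In this screen, ME-180 cells in Opti-MEM with 0.5% dialyzed FBS received EC50 EGF and compound titrations for 5 h. AP-1 reporter beta-lactamase was detected via CCF4 ratio, giving AC50 for positive and negative modulators.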

[18] = NFAT Signaling Pathway (AID 444; active means well fitted curve in either direction with a large enough effect, not every such curve was filed as active;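 further: carbachol stimulus at about its EC50 of 1 µM final; on the % scale 0 is the no-effect control and ±100 the full control effect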); conditions: Jurkat NFAT-bla M1, carbachol, beta-lactamase ratio, 5 h; at 7.69 µM (top of the series)
Procedure, shortened: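 Jurkat cells carrying an NFAT-driven β-lactamase reporter and co-transfected muscarinic M1 receptor were treated with compound plus carbachol (1 uM final, an EC50 level) for 5 h at 37 °C. CCF4 loading followed for 1 h at RT; 460/530 nm ratio gave %activity.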

[19] = Stat Signaling Pathway (AID 446; active means well fitted curve in either direction with a large enough effect, not every such curve was filed as active;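 further: ME-180 cervical cancer cells given 40 pM IL-6 alongside compound; SIE-controlled beta-lactamase reporter measured as 460/530 nm FRET emission ratio; on the % scale 0 is the no-effect control and ±100 the full control effect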); conditions: ME-180 (cervical carcinoma) SIE beta-lactamase reporter, IL-6 stimulated, 5 h; at 7.69 µM (top of the series)
Procedure, shortened: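 Compound effects on IL-6-induced STAT reporter activity were measured in ME-180 cells. After overnight culture, cells were co-treated with 40 pM IL-6 for 5 hrs before beta-lactamase substrate loading at room temperature.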

[20] = biological target: 3',5'-cyclic-AMP phosphodiesterase 4B (Homo sapiens) (UniProt Q07343); assay: qHTS Assay for Inhibitors of PDE-IV (AID 607; active means well fitted activation curve with a large enough effect in the main read-out, with a control signal flat, not every such curve was filed as active; further: % of control where 0% means no effect); conditions: HEK293 ACTOne CNG channel cells, membrane potential fluorescence; at 22.9 µM (top of the series)
Procedure, shortened: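 ACTOne HEK293 cells carry a modified cAMP-gated CNG channel and express endogenous PDE4; plated 1000 cells/well, compounds up to 22.9 uM final. Membrane-potential dye fluorescence (ex 535/em 590) was read; parental cells received 10 uM forskolin + 100 uM RO 20-1724.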

ClCCOP(OCCCl)OCCCl
inactive: activity change, negative = inhibition [1] 26% | activity change, negative = cytotoxicity [2] 0.3% | activity change, negative = cytotoxicity [3] -14.8% | activity change, negative = cytotoxicity [4] 1.23% | activity change, negative = cytotoxic [5] 0.912% | viability change, negative = cytotoxic [6] -17.6% | activity change, negative = cytotoxicity [7] 1.51% | activity change, negative = cytotoxicity [8] 2.78% | caspase-3 activation [9] -0.284% | caspase-3 activation [10] 1.23% | caspase-3 activation [11] -5.16% | caspase-3 activation [12] 2.44% | caspase-3 activation [13] -0.473% | caspase-3 activation [14] 0.962% | caspase-3 activation [15] 1.06% | caspase-3 activation [16] 0.479%

CCOP(=O)(Cl)Cl
inactive: activity change, negative = inhibition [1] 11% | activity change, negative = cytotoxicity [2] 6.06% | activity change, negative = cytotoxicity [3] 0.762% | activity change, negative = cytotoxicity [4] -6.59% | activity change, negative = cytotoxic [5] -4% | viability change, negative = cytotoxic [6] 3.24% | activity change, negative = cytotoxicity [7] -1.87% | activity change, negative = cytotoxicity [8] 6.77% | caspase-3 activation [9] -0.427% | caspase-3 activation [10] 0.588% | caspase-3 activation [11] -3.81% | caspase-3 activation [12] -1.75% | caspase-3 activation [13] -0.643% | caspase-3 activation [14] 2.27% | caspase-3 activation [15] -0.0102% | caspase-3 activation [16] 0.484%

NC1CCCCC1.NP(=O)(O)N(CCCl)CCCl
inactive: activity change, negative = inhibition [17] -0.616% | activity change, negative = inhibition [18] 9.97% | activity, negative = inhibition [19] 0.169% | activity change, negative = inhibition [1] 1.44% [at 11.4 µM] | activation (PDE inhibition) [20] 3.73%

O=C(O)C1(Nc2ccccc2)CCN(Cc2ccccc2)CC1
inactive: activity change, negative = inhibition [17] 3.45% | activity change, negative = inhibition [18] 6.7% | activity, negative = inhibition [19] 12.1% | activity change, negative = inhibition [1] 6.43% [at 11.4 µM] | activation (PDE inhibition) [20] -4.04%
